We go through two substances from patent US20110034368A1.

In general, Kd refers to a measure of binding affinity in units of concentration. Low readings indicate tighter binding, high ones weaker binding. Usually koff stands for the rate constant with which the complex falls apart. As a reminder, the kon is the rate constant with which the complex forms. Lower therefore signals slow association.

The experiment has as its target soluble rhTNFa (human) (UniProt P01375). Nature of the experiment: SPR, Biacore 3000; antibody captured on immobilized goat anti-human IgG, soluble rhTNFa 1-100 nM as analyte; 1:1 Langmuir global fit. (Surface plasmon resonance follows binding to a sensor surface in real time, without labels.)

In turn, “D2E7 antibody produced from the manufacturing process (antibody; other documents disagree on this pair)” had a Kd of 0.0389 nM, an off-rate (koff) of 6.72e-05 s⁻¹ and a kon of 1.73e+06 M⁻¹ s⁻¹.
Substance “D2E7 antibody produced using the pTT3-HcintLC-p. hori sORF construct (antibody; other documents disagree on this pair)” displayed a Kd of 0.0354 nM, a dissociation rate constant (koff) of 5.69e-05 s⁻¹ and an on-rate (kon) of 1.61e+06 M⁻¹ s⁻¹.
